Reference: patent US7220849B2, “Enhanced gamma-carboxylation of recombinant vitamin K-dependent clotting factor” (The Children's Hospital of Philadelphia, priority 1999, dated 2007)

Tested on: HEK 293 cells
Assay: rFactor X expression level of stable clones by sandwich ELISA
Type: cell-based, human
Procedure: Expression of rFactor X. HEK 293 cells were transfected with pCMV4-ss-pro-II-Factor X using Lipofectamine according to the manufacturer's instructions. Cotransfection with a plasmid containing the neomycin resistance gene and the PACE/furin gene (pcDNA3-PACE; pcDNA3 was obtained from Invitrogen and the PACE cDNA was obtained from Genetics Institute, Boston, Mass.) was performed at a 1:10 molar ratio (pcDNA3-PACE/pCMV4-ss-pro-II-Factor X). Transfectants were selected with the neomycin analogue G418, and resistant colonies were screened for Factor X production by sandwich ELISA as described (Larson et al., 1998, Biochemistry 37:5029). Selected clones were expanded into NUNC cell factories (1264 or 6320 cm^2; Nalge Nunc Int., Naperville, Ill.) and a total of 6–15 liters of conditioned media was collected over 14–21 days. The medium was filtered and made 10 mM benzamidine prior to storage at −20° C.
Expressions Purification and Characterization of a Recombinant Prothrombin Propeptide Factor X Chimeric Protein. The chimeric expression vector, pCMV4-ss-pro-II-wtFactor X, was used to transfect HEK 293 cells. Several clones which were positive for rFactor X by ELISA were selected and subsequently expanded to establish cell lines. Two clones harboring the prothrombin pre-pro-sequence, clone B5 and clone A1, as well as native rwtFactor X (clone D3; described previously in Larson et al., 1998, Biochemistry 37:5029) are described in detail here.

Q: With “rFX-1 B5: rFactor X expressed with the prothrombin pre-pro-sequence in HEK 293 cells, clone B5” as the substance, how does the expression level read?
A: The expression level was 4.0 μg/10^6 cells/24 hour.

Q: How did the expression level turn out when “rFX-1 D3: native rwtFactor X (FX propeptide, Thr→Arg at −2) expressed in HEK 293 cells, clone D3” was run?
A: The expression level was 4.0 μg/10^6 cells/24 hour.

Q: How did the expression level turn out when “rFX-2 A1: rFactor X expressed with the prothrombin pre-pro-sequence in HEK 293 cells, clone A1” was run?
A: The expression level was 2.3 μg/10^6 cells/24 hour.
